Results as given in patent US8686023B2, “Salts of sunitinib” (Lek Pharmaceuticals D.D., priority 2008, dated 2014).

| Substance | Solubility of sunitinib salts in water at 25° C. [mg/mL] |
| --- | --- |
| sunitinib D-tartrate | 142 |
| sunitinib L-tartrate | 111 |
